Results taken from EP4741397A1, “FUSED TRICYCLIC COMPOUND, AND PREPARATION METHOD THEREFOR AND USE THEREOF” (Shenzhen Zhongge Biological Technology Co., Ltd., priority 2023, dated 2025).

Protein sequences, listed by entry. Tags and fused reporters are not part of them. Residues count along the entry.
UniProt Q6SZW1, 408-724 limits assumed: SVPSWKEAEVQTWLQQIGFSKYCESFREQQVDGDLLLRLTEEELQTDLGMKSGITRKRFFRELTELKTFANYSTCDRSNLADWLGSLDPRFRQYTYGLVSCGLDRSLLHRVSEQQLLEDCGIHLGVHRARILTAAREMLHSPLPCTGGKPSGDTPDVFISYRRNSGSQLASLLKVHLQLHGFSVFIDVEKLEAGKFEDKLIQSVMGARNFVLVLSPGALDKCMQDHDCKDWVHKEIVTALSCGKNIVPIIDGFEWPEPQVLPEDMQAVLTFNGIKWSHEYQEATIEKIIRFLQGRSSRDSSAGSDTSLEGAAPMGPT

target: SARM1 (Homo sapiens, UniProt Q6SZW1); test: In vitro enzyme inhibition activity (SAM-TIR lysate, NAD/ADPR by HPLC-MS/MS); conditions: read-out: SARM1 IC50; SAM-TIR lysate (SARM1 408-724) from NRK1-HEK293T cells; 25°C, 3 h with NAD

Which IC50 does the source give for O=C(CCc1ccc(Cl)c(F)c1)Nc1[nH]nc2c1CCOc1cnccc1-2 here?
The IC50 was less than 150 nM.

For O=C1C(Cc2ccc(Cl)c(F)c2)CCN1c1[nH]nc2c1ccc1cnccc12 (centres unmarked), which IC50 is on record?
The IC50 was greater than 1000 nM.

Which IC50 does the source give for O=C1Nc2c3ccc4cnccc4c3nn2CCC1Cc1ccc(Cl)c(F)c1 (centres unmarked) here?
The IC50 was greater than 1000 nM.

For Nc1nn(C(=O)CCc2ccc(Cl)c(F)c2)c2c1CCOc1cnccc1-2, which IC50 is on record?
Its IC50 is greater than 1000 nM.

Which IC50 does the source give for Nc1c2ccc3cnccc3c2nn1C(=O)CCc1ccc(Cl)cc1 here?
The IC50 was greater than 1000 nM.
